This data set concerns the target Dipeptidyl peptidase 4 (Homo sapiens, UniProt P27487). Nature of the data set: Inhibition of CD26-catalyzed prodrug Val-Pro-NAP-TSAO-T conversion to parent drug NAP-TSAO-T. It is filed as ADME.

Sequences of proteins named here, by UniProt entry; tags and fusion partners are left off.
UniProt P27487, whole entry: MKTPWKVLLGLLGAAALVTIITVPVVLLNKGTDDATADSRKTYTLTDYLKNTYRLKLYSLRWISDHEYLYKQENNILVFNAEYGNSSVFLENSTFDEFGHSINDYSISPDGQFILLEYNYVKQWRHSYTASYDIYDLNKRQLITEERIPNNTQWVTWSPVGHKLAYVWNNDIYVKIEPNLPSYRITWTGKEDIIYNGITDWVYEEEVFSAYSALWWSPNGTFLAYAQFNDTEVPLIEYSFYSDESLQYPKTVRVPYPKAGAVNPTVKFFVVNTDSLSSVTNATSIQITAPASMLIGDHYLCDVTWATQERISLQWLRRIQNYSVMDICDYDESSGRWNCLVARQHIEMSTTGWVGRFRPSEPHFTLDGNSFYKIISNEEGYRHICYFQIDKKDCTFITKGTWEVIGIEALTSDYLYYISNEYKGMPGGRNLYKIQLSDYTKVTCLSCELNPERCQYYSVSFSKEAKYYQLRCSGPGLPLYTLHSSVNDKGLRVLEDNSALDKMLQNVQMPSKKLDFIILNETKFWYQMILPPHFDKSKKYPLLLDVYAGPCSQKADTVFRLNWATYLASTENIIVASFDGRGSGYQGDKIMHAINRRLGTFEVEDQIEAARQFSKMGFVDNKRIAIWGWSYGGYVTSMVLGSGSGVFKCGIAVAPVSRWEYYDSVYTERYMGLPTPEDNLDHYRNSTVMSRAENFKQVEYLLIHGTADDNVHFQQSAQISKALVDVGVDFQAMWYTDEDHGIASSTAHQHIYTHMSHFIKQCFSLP

Molecules are shown by their SMILES.

Turning to `CC[C@H](C)[C@H](N)C(=O)N1CCC[C@H]1C(=O)N[C@H](C(=O)O)[C@@H](C)CC` [DIPROTIN A], the Inhibition was 70%.

What is called Inhibition is the drop in the measured response relative to a control, in per cent.

The values above are taken from ChEMBL document CHEMBL1146037, “Design and discovery of a novel dipeptidyl-peptidase IV (CD26)-based prodrug approach” (J Med Chem, 2006).
